Results from patent US12478623B2 (INTRA-CELLULAR THERAPIES, INC., priority 2019, dated 2025).
Only a part of the results on these compounds is given; other tests are left out.

Legend:
healthy individuals = settings: double-blind; cited from earlier work
rats = settings: cited from earlier work
freely moving rats = experiment: Regional dopamine release in freely moving rats; settings: SNP with risperidone
[1] = system: memory deficits caused by ketamine; settings: single dose, ketamine-induced deficits; cited from earlier work
[2] = system: ketamine induced hyperactivity; settings: single dose; cited from earlier work

sodium nitroprusside
Psychotomimetic symptoms induced by ketamine (healthy individuals): reduced psychotomimetic symptoms induced by ketamine | PCP induced hyperactivity (rats): completely abolished phencyclidine (PCP) induced hyperactivity | Risperidone-induced dopamine release in the nucleus accumbens (freely moving rats; NAc): not in the nucleus accumbens | Risperidone-induced dopamine release in the mPFC (freely moving rats; mPFC): significantly enhances the risperidone-induced dopamine release in the mPFC | Memory deficits in the novel object recognition test [1]: restored memory deficits caused by ketamine | Ketamine induced hyperactivity [2]: prevent ketamine induced hyperactivity up to a week after the SNP injection
